According to patent US20180000771A1, “AGENT FOR PREVENTING AND/OR TREATING AMYOTROPHIC LATERAL SCLEROSIS” (KYOTO UNIVERSITY, priority 2015, published 2018):

Test system: motoneuron cells derived from iPS cells having SOD1-L144FVX mutation
Assay: survival of motoneuron cells induced from ALS patient iPS cells (SOD1 mutation)
Conditions: added at 7 days after addition of doxycycline, cultured for 7 more days

SMILES: Nc1nc2ccc(OC(F)(F)F)cc2s1 [riluzole]
- number of surviving cells: number of surviving cells was high
